Reference: paper PMC9516332 (Frontiers in Oncology, 2022)

Protein sequences, listed by entry. Tags and fused reporters are not part of them. Residues count along the entry.
UniProt Q15303, 26-1308: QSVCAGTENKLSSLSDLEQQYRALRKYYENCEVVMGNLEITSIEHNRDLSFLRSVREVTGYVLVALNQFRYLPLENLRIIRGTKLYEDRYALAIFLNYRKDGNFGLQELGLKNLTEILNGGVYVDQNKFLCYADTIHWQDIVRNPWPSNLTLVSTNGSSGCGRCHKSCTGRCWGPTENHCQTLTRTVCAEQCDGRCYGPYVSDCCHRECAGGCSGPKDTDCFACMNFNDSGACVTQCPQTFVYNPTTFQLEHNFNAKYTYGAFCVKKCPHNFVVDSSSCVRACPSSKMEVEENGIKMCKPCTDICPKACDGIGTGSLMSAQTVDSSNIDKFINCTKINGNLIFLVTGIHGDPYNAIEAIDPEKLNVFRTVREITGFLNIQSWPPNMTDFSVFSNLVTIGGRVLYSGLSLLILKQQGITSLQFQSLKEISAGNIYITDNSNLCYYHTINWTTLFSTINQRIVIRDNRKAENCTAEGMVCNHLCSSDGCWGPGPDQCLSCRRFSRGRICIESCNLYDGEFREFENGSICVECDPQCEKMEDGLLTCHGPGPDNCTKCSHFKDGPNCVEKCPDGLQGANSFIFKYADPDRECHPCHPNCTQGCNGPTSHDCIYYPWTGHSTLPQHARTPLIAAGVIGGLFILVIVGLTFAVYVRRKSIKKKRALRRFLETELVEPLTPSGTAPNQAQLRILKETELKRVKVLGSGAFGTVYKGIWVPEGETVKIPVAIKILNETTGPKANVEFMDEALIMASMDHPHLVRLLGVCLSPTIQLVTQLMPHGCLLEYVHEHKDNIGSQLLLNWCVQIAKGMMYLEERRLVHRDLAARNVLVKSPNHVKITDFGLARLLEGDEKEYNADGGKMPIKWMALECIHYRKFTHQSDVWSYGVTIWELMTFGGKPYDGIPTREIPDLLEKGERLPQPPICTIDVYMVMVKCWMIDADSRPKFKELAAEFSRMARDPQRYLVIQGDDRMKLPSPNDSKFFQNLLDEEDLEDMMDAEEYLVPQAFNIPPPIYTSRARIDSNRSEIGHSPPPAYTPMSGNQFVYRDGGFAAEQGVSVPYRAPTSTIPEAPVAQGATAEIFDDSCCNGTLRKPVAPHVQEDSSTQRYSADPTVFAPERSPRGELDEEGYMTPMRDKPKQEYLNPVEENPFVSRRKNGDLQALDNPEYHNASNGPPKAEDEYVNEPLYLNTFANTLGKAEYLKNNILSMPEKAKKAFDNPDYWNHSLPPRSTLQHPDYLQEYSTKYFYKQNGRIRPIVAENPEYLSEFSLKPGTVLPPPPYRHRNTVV
UniProt P04626, 23-1255: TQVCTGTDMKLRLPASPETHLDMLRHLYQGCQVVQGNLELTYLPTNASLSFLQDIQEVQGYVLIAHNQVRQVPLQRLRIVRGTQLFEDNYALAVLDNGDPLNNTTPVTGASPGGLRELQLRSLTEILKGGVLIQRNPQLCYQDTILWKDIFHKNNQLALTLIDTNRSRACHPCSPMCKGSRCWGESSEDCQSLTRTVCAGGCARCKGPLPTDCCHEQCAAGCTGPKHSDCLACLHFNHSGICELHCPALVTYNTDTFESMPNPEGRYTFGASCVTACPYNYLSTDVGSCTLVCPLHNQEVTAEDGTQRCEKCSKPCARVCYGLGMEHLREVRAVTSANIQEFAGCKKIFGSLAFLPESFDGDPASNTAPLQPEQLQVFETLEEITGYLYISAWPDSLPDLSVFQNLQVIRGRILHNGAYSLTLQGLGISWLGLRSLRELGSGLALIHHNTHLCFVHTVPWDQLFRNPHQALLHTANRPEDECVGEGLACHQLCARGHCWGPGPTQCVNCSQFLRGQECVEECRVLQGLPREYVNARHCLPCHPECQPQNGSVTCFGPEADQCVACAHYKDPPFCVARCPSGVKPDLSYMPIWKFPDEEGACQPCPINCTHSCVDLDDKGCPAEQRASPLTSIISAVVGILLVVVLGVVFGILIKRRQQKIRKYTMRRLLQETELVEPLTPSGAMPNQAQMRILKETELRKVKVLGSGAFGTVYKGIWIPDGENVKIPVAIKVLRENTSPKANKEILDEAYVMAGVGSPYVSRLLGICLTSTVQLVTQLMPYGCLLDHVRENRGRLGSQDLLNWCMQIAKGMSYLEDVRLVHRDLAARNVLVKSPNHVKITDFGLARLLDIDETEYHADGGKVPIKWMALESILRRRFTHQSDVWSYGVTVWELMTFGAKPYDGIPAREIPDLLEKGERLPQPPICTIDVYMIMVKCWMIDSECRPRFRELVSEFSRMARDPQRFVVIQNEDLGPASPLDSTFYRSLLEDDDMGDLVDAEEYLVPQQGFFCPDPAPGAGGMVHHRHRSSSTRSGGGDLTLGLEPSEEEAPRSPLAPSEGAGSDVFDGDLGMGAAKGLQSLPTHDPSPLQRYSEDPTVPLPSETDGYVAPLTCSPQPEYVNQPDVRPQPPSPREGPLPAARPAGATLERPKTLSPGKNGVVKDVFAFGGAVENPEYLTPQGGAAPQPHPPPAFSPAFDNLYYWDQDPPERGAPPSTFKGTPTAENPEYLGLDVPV

What was measured:
HER4 = target: T1, HER4 (Homo sapiens, UniProt Q15303); test: Biochemical kinase assay (MSA), IC50
T1 construct: purchased Carna Biosciences (only by web pointer)

HER2 = target: T2, HER2 (Homo sapiens, UniProt P04626); test: Biochemical kinase assay (MSA), IC50
T2 construct: purchased Carna Biosciences (only by web pointer)

134 cancer cell lines = test: Cell viability assay (ATPlite, 72 hours), IC50 on cancer cell line panel; conditions: L-82, read-out: IC50 in cell proliferation assay, L-82 cell line (NPM1-ALK)
AP-1060 (ETV6-NTRK3) = test: Cell viability assay; conditions: read-out: IC50 in cell proliferation assay

| IC50 (HER4) [nM] | IC50 (HER2) [nM] | Compound | IC50 (134 cancer cell lines) [µM] | IC50 (AP-1060 (ETV6-NTRK3)) [µM] |
| --- | --- | --- | --- | --- |
| 0.6 | 6 | COc1cc2ncnc(Nc3ccc(F)c(Cl)c3)c2cc1NC(=O)/C=C/CN1CCCCC1 [dacomitinib] | – | – |
| – | – | CCN1CCN(c2ccc(Nc3cc(N(C)C(=O)Nc4c(Cl)c(OC)cc(OC)c4Cl)ncn3)cc2)CC1 [infigratinib] | 3.62 | 3.62 |
